Measurements: ChEMBL document CHEMBL1275363, “Design, synthesis, crystal structures, and antimicrobial activity of sulfonamide boronic acids as β-lactamase inhibitors” (J Med Chem, 2010)

Amino acid sequences for entries named in this document (tags omitted). Chains listed by the source or under a name are the forms on record and can include a tag or linker.
UniProt Q9L5C7, as listed by the source: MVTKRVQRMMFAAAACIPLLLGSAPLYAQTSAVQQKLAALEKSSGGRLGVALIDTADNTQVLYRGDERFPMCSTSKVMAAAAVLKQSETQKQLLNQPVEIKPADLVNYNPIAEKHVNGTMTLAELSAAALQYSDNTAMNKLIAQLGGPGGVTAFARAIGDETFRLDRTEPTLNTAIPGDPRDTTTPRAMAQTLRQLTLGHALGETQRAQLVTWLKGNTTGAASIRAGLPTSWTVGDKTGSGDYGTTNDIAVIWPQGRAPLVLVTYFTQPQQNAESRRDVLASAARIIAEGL

What was measured:
Enterobacter cloacae = assay: Inhibition of Enterobacter cloacae beta-lactamase class C assessed as fold decrease in Ceftazidime MIC […]
Procedure, shortened: (§1)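 MICs were measured on clinical isolates following CLSI guidelines in Mueller-Hinton medium. Inhibitor was dissolved in 50% DMSO, with final DMSO below 5%, and combined with ceftazidime at a 1:1 β-lactam:inhibitor ratio. Fold change is compared with ceftazidime alone. Values are means of three independent experiments.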

Citrobacter freundii = assay: Inhibition of Citrobacter freundii beta-lactamase class C assessed as fold decrease in Ceftazidime MIC […]; procedure, shortened: as §1
Pseudomonas aeruginosa = assay: Inhibition of Pseudomonas aeruginosa beta-lactamase class C assessed as fold decrease in Ceftazidime MIC […]; procedure, shortened: as §1
[1] = target: AmpC (Klebsiella pneumoniae) (UniProt Q84AD8); assay: Inhibition of Klebsiella pneumoniae AmpC beta-lactamase DHA-1 assessed as fold decrease in Ceftazidime MIC […]; procedure, shortened: as §1
[2] = target: Beta-lactamase CTX-M-14 (Escherichia coli) (UniProt Q9L5C7); assay: Inhibition of Escherichia coli class A beta-lactamase CTX-M-14 assessed as fold decrease in Ceftazidime MIC […]; procedure, shortened: as §1

SMILES: O=C(O)c1ccc(CS(=O)(=O)NCB(O)O)cc1
- fold change (FC) (Enterobacter cloacae): 8
- fold change (FC) (Citrobacter freundii): 8
- fold change (FC) (Pseudomonas aeruginosa): 8
- fold change (FC) [1]: 8
- fold change (FC) [2]: 16
